These results are taken from ChEMBL document CHEMBL1641420, “Discovery of pyrazolo[1,5-a]pyrimidine-based CHK1 inhibitors: a template-based approach--part 1” (Bioorg Med Chem Lett, 2011).

This test deals with T1, Serine/threonine-protein kinase Chk1 (Homo sapiens, UniProt O14757).
T1 sequence (O14757 whole entry): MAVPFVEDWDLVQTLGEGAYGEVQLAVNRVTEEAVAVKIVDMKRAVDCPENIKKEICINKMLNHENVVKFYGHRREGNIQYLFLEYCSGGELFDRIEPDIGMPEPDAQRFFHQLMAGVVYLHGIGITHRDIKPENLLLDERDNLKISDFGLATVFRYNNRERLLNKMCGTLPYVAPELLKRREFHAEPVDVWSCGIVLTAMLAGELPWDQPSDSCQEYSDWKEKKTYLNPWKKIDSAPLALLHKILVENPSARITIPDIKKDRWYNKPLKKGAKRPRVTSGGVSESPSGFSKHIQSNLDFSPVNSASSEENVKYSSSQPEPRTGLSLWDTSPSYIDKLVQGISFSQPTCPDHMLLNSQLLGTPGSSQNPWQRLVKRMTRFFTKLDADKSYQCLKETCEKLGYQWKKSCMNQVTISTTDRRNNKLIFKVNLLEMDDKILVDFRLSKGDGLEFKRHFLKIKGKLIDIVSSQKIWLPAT
The test is described as follows: Inhibition of recombinant His-CHK1 expressed in baculovirus after 2 hrs by scintillation proximity assay. In general terms: Scintillation proximity formats need no separation of bound from free tracer.

SMILES strings stand for the structures.

In the case of `Cc1cc(Nc2cc(C3CCCNC3)nc3c(-c4cnn(C)c4)cnn23)sn1` (stereo unspecified), the IC50 worked out at 9 nM.

Broadly, the IC50 is the midpoint of a concentration-inhibition curve.
